This experiment in a line: Inhibition of rat FAAH deltaTM mutant expressed in Escherichia coli using AAMCA as substrate after 15 mins by medium throughput fluorescent assay.

For orientation: IC50 means the concentration needed to halve the response being measured.

`O=S(=O)(F)CCCCCCCc1ccc(OCc2ccccc2)cc1` displayed an IC50 of 3.7 nM.

These data come from ChEMBL document CHEMBL2177096, “Sulfonyl fluoride inhibitors of fatty acid amide hydrolase” (J Med Chem, 2012).
